Measurements as given in patent publication US20080026996A1, “Selective Vpac2 Receptor Reptide Agonists” (ELI LILLY AND COMPANY, priority 2004, published 2008).
Where no end group is shown, it is not given here. [ ]: non-standard residue; d: D form. hArg = N=C(N)NCCCC[C@H](N)C(=O)O

Biological target: T1, human VPAC2 receptor (human, UniProt P41587 24-438)
T1 sequence (looked up): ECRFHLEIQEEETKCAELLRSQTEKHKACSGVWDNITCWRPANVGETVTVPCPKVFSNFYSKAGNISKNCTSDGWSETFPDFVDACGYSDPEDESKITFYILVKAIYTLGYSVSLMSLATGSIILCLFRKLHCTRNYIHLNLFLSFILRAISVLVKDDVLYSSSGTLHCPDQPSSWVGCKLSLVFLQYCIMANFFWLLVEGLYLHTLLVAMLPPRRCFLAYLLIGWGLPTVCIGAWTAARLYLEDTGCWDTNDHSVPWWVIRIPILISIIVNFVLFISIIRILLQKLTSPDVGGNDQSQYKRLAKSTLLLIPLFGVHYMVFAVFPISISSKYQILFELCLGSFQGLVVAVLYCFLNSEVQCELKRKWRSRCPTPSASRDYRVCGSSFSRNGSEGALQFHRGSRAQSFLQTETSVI
Test: cell-based or functional assay

Binder: HSDAVFTDNYTRLRKQVAA[hArg]KYLQSIKNKRYGGPSSGAPPPS (ends and bridges not checked) [P18]
- EC50 cAMP, Alpha Screen: 3.31 nM
- EC50 cAMP, DiscoveRx: 2.87 nM
